This passage reports Kd results from publication PMC5026484 (2016).

The test concerns the target T1, bMERB domain (Rab binding domain) of Mical-cL, residues 534-683 (human, UniProt O94851 1796-1945).
T1 chain: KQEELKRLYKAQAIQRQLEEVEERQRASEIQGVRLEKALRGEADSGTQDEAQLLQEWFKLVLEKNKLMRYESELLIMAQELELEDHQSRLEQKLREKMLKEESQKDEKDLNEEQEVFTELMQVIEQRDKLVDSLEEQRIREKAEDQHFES
Briefly: ITC; uncorrected Rab35 concentration. In general terms: Isothermal titration calorimetry measures the heat released or taken up as one component is titrated into another.

As a reminder, the Kd is a measure of binding affinity in units of concentration. Read a high Kd as lower affinity.

B1: Rab35 (partly loaded with GppNHp) (natural protein)
chain: not shown
B1: the Kd worked out at 2.2 µM.
